Assay results reported in PMC11433870, “Neurotoxicity, Neuroprotection, In Vitro MAOA/MAOB Inhibitory Activity Assessment, Molecular Docking, and Permeability Assay Studies of Newly Synthesized Hydrazones Containing a Pyrrole Ring” (Molecules, 2024).

Conditions: pH 7.4, 4 h, 25 °C

Compound | PAMPA BBB permeability class
CCOC(=O)c1cc(-c2ccc(Br)cc2)n(CCC(=O)NN=Cc2ccc(N(C)C)cc2)c1C [8a] | medium (When 6 < −logPe < 5, the compound was classified as medium permeable)
CCOC(=O)c1cc(-c2ccc(Br)cc2)n(CCC(=O)NN=Cc2ccc(OC)cc2OC)c1C [8e] | medium (When 6 < −logPe < 5, the compound was classified as medium permeable)
